This test deals with T1, Nitric oxide synthase, inducible (Mus musculus, UniProt P29477).
T1 sequence (P29477 whole entry): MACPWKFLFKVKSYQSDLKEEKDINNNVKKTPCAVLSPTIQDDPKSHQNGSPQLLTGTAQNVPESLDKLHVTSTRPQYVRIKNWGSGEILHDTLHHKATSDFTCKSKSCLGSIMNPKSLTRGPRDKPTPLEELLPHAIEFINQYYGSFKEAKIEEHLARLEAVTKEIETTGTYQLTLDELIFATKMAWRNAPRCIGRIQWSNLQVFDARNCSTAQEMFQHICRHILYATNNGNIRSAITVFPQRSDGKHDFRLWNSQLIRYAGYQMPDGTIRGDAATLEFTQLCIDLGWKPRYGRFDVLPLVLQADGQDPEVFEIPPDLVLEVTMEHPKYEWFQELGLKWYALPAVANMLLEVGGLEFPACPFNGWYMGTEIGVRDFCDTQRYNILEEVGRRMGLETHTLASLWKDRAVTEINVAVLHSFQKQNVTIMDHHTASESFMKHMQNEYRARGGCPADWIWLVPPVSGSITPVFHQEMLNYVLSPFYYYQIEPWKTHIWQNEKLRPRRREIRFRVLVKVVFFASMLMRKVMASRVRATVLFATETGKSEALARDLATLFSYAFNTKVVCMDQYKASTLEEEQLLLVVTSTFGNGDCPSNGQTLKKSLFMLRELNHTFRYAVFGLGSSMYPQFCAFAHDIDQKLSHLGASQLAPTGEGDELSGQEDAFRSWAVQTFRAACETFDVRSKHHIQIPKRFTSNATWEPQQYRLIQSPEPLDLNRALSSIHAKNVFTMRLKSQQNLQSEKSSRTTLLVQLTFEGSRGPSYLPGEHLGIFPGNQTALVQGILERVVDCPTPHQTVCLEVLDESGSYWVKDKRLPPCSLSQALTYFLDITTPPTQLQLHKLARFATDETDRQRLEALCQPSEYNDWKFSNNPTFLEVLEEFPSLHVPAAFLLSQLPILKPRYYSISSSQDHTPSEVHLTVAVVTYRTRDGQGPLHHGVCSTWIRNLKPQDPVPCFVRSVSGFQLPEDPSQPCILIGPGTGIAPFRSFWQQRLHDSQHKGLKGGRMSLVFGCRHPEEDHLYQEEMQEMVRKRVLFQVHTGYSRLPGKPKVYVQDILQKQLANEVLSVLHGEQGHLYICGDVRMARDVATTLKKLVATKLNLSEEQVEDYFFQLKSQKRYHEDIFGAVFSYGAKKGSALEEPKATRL
Briefly: Hemoglobin Assay. To be noted: pH 7.4. As to the method: The assay mixture contained L-arginine (10 μM), NADPH (100 μM), oxyhemoglobin (0.125 mg/mL), tetrahydrobiopterin (10 μM), and different amounts ofinhibitors. The final volume was adjusted to 600 μL with 100 mM Hepes buffer (pH 7.4). The enzymatic reaction was initiated by addition of 10 μL of an iNOS stock, and the rate of NO production was monitored by the change in absorbance at 401 nm in the initial 60 s on a spectrophotometer at 37 °C.

Each structure is given as a SMILES string.

Take `CC(=N)NCCC[C@H](N)C(=O)O` [(S)-5-Acetimidamido-2-aminopentanoic acid (4, L-NIO)]: the Ki was found to be 3.65 µM.

As usually defined, the Ki is a measure of affinity in units of concentration, obtained from inhibition or displacement. Low values mean higher affinity, high ones lower affinity.

Source of the values: BindingDB's records for doi:10.1021/acs.biochem.5b00135 (Northwestern University, 2015).
